## Antibody variant affinities, Ab-95 light chain, assay 2

The measurements come from Engelhart et al. 2022 (doi:10.1038/s41597-022-01779-4) through the FLAb antibody collection.

Target peptide (SARS-CoV-2 spike, HR2 region): PDVDLGDISGINAS

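The starting antibody came from a phage panning campaign against this peptide. AAYL52 was designed without a model: most single CDR substitutions and a random sample of double and triple ones. In AlphaSeq, yeast of one mating type display the scFv and yeast of the other type display the target. Pairs that bind mate more often; barcode pairs of the diploids are counted by sequencing. Each replicate has its own calibration line, from reference interactions of the BCL2 family. Mating was done three times.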

Parent: Ab-95, a human scFv built as VH, a (GGGGS)3 linker, VL. Only the CDRs of the light chain vary.
VH: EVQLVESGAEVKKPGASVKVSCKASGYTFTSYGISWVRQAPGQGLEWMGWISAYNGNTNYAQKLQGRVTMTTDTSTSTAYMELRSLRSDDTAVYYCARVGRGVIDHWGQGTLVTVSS
VL: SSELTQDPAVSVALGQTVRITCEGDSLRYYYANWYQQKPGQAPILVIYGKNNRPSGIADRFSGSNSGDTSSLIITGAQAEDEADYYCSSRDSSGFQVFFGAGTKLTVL

Changes read parent residue, position, new residue, counted from the first residue of the VL shown. Values are log10 of the apparent Kd in nM; lower means stronger binding. Averages over replicates are reported, and they cover detected replicates only. "ND" marks a missing value. The strain was present, yet no cells mated with the target were sequenced in that replicate, which points to weak or no binding. Background: pairings of library AAYL52 with three empty control strains gave a value in 28% of cases (median 3.91, 5th percentile 2.90). Values in that range, when seen in few replicates, are hard to tell from nonspecific mating. For each scFv, signals with the empty controls are counted beside the result, with their mean in brackets. For reference, the parent read 2.31 as the reference entry and 2.25 as a member of this library.

changes,"log10 Kd, replicates","log10 Kd (nM), mean",empty controls
A32Q+Q96T+F98R,3.55 / 2.84 / 4.35,3.58,3 of 9 (3.87)
D25R+S89M+S92T,3.59 / 4.00 / 2.16,3.25,4 of 9 (4.40)
G24E+L27V+Y31E,4.72 / 3.13 / ND,3.92,3 of 9 (3.64)
S26F+R53N+V97M,ND / ND / 3.51,3.51,0 of 9
G24R+Y30M+R53T,2.91 / 3.33 / ND,3.12,4 of 9 (3.98)
G24Q+N52R+F98L,ND / ND / 3.46,3.46,3 of 9 (3.85)
S26N+K50E,2.53 / 2.85 / 2.40,2.60,4 of 9 (4.27)
Y29M+F98V,3.39 / 2.89 / 2.78,3.02,2 of 9 (4.17)
S26Y+Y31K+Q96P,3.17 / 3.28 / 3.81,3.42,3 of 9 (3.46)
E23D+V97T+F98Y,3.80 / 3.13 / 2.35,3.09,5 of 9 (3.71)
D25E+N52T+Q96R,2.46 / 2.64 / 2.78,2.63,2 of 9 (4.23)
E23L+N52S+V97E,3.91 / 2.76 / 2.62,3.10,2 of 9 (3.35)
S26R+Y29W+S93Y,3.78 / ND / ND,3.78,4 of 9 (3.71)
S26D+Y29M+F98T,4.87 / ND / 3.54,4.20,3 of 9 (4.10)
S26L+Y31K+S55E,ND / ND / 3.71,3.71,4 of 9 (3.80)
L27I+G94L,3.77 / 3.03 / 4.18,3.66,6 of 9 (4.19)
E23C+A32Q+N51Y,4.00 / 3.67 / ND,3.83,1 of 9 (4.31)
G49I+F95T,4.85 / ND / ND,4.85,1 of 9 (3.24)
S26F+N52R+S92N,4.28 / 4.95 / 3.95,4.39,4 of 9 (3.97)
D25C+S92E+V97S,ND / ND / ND,ND,2 of 9 (3.28)
D25G+N52V+S89V,2.57 / 2.48 / 2.98,2.68,4 of 9 (3.78)
R28F+A32T+N33E,4.14 / ND / ND,4.14,2 of 9 (4.18)
Y29K+G49W+N52A,3.46 / ND / ND,3.46,2 of 9 (3.50)
R53H+S88Y+F98D,ND / ND / ND,ND,2 of 9 (3.91)
L27R+N33K+G94Q,ND / 4.88 / ND,4.88,3 of 9 (4.41)
S89W+R90K,2.86 / 2.91 / 3.44,3.07,4 of 9 (3.94)
Y30C+Q96F+F98C,3.69 / ND / ND,3.69,1 of 9 (4.34)
S26N+R53G+S92W,3.88 / ND / ND,3.88,4 of 9 (4.04)
N51Y+F98A,4.10 / 4.15 / 3.81,4.02,4 of 9 (3.94)
R28P+S89P+F98E,ND / ND / ND,ND,0 of 9
N52K+F95C+V97M,2.80 / 4.20 / 2.57,3.19,0 of 9

The opening 2 entries, copied out:

changes,"log10 Kd, replicates","log10 Kd (nM), mean",empty controls
A32Q+Q96T+F98R,3.55 / 2.84 / 4.35,3.58,3 of 9 (3.87)
D25R+S89M+S92T,3.59 / 4.00 / 2.16,3.25,4 of 9 (4.40)